# Reported properties for industrial, environmental and drug-like chemicals

Values as listed in the OPERA 2.9 repository of K. Mansouri.

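OPERA's authors assembled the values from existing databases and did not measure them anew. One number stands for a compound and property, with no spread given. How each value was measured is not recorded, so precision varies. Where a salt, mixture or single isomer is drawn, the source does not say that exactly this form was tested. Some entries may be limits or estimates that an upstream database listed as plain numbers.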

The melting point is given in degrees Celsius. logP is the log10 of the octanol-water partition coefficient; higher is more lipophilic. Water solubility is log10 of mol/L, nominally at 25 °C; higher is more soluble. Vapor pressure is log10 of mmHg; the set covers 15 to 30 °C, mostly 20 to 25 °C. Henry's law constant (air-water partitioning) is log10 of atm·m3/mol, nominally at 25 °C.

{"smiles": "CO/N=C1\\CN(c2nc3c(cc2F)c(=O)c(C(=O)O)cn3C2CC2)CC1CN", "stereo": "stereo partly drawn", "MP (°C)": "236", "logP": "2.3", "log solubility (log10 mol/L)": "-3.268"}
{"smiles": "Cc1cc(C)cc(C(=O)Cl)c1", "MP (°C)": "4", "log solubility (log10 mol/L)": "-3.329", "vapor pressure (log10 mmHg)": "-1.409"}
{"smiles": "COCc1ccc(O)c(OC)c1", "logP": "0.7", "log solubility (log10 mol/L)": "-1.893", "vapor pressure (log10 mmHg)": "-2.763"}
{"smiles": "CC(=O)OCC(=O)[C@]1(O)[C@@H](O)C[C@@H]2[C@H]3CCC4=CC(=O)C=C[C@@]4(C)[C@@H]3[C@H](OC(C)=O)C[C@]21C", "MP (°C)": "232.9", "vapor pressure (log10 mmHg)": "-9.639"}
{"smiles": "CC1OCC(c2ccccc2)O1", "stereo": "stereo unspecified", "logP": "2.19", "log solubility (log10 mol/L)": "-1.805", "vapor pressure (log10 mmHg)": "-0.144"}
{"smiles": "CC1(C)CC(O)CC(C)(CN)C1", "stereo": "stereo unspecified", "logP": "0.96", "vapor pressure (log10 mmHg)": "-1.176"}
{"smiles": "CC1(C)[C@@H]2CC[C@@](C)(O)[C@H]1C2", "logP": "2.98", "log solubility (log10 mol/L)": "-2.252", "vapor pressure (log10 mmHg)": "-1.301"}
{"smiles": "O=[N+]([O-])c1ccccc1-c1ccc(Cl)cc1", "MP (°C)": "62.5", "log solubility (log10 mol/L)": "-4.937", "vapor pressure (log10 mmHg)": "-4.846"}
{"smiles": "CCCCC(CC)COC(=O)C(C#N)=C(c1ccccc1)c1ccc(OC)cc1", "stereo": "stereo unspecified", "log solubility (log10 mol/L)": "-6.991", "vapor pressure (log10 mmHg)": "-9.727"}
{"smiles": "CC(C)=CCCC(C)C=O", "stereo": "stereo unspecified", "log solubility (log10 mol/L)": "-2.448", "vapor pressure (log10 mmHg)": "0.154"}
{"smiles": "C=C(OCC)C1C(C)(C)CC(=O)CC1(C)C", "logP": "4.3", "log solubility (log10 mol/L)": "-3.643", "vapor pressure (log10 mmHg)": "-2.324"}
{"smiles": "NS(=O)(=O)c1cc(C(=O)O)ccc1Cl", "logP": "0.881", "log solubility (log10 mol/L)": "-2.49", "vapor pressure (log10 mmHg)": "-4.502"}
{"smiles": "CCCCC(CC)CCl", "stereo": "stereo unspecified", "logP": "5.6", "Henry's law constant (log10 atm·m3/mol)": "-2.629"}
{"smiles": "C=CCOC(=O)C(C)(C)OC(=O)c1cc([N+](=O)[O-])ccc1Cl", "MP (°C)": "47", "logP": "3.5", "log solubility (log10 mol/L)": "-4.436", "vapor pressure (log10 mmHg)": "-6.107"}
{"smiles": "CSCCC=O", "logP": "-0.16", "log solubility (log10 mol/L)": "0.194"}
{"smiles": "C=CC(=O)OCCOCCOCC", "logP": "1.105", "vapor pressure (log10 mmHg)": "-1.523"}
{"smiles": "CC(=O)OCCN(CCOC(C)=O)c1ccc(N=Nc2sc([N+](=O)[O-])cc2[N+](=O)[O-])cc1", "MP (°C)": "145", "logP": "4.2", "log solubility (log10 mol/L)": "-7.547", "vapor pressure (log10 mmHg)": "-5.453"}
{"smiles": "CCCC(=NOCC(C)Oc1ccc(Cl)cc1)C1=C(O)CC(C2CCCSC2)CC1=O", "stereo": "stereo unspecified", "log solubility (log10 mol/L)": "-4.939", "vapor pressure (log10 mmHg)": "-5.893", "Henry's law constant (log10 atm·m3/mol)": "-6.76"}
{"smiles": "CC1(C)O[C@@H]2C[C@H]3[C@@H]4C[C@H](F)C5=CC(=O)C=C[C@]5(C)[C@H]4[C@@H](O)C[C@]3(C)[C@]2(C(=O)CO)O1", "logP": "1.1", "log solubility (log10 mol/L)": "-4.065"}
{"smiles": "Nc1c(/N=N/c2ccc(S(=O)(=O)[O-])cc2S(=O)(=O)[O-])cc(S(=O)(=O)[O-])c2cc(S(=O)(=O)[O-])c(/N=N/c3ccc([N+](=O)[O-])cc3S(=O)(=O)[O-])c(O)c12.[Na+].[Na+].[Na+].[Na+].[Na+]", "logP": "-4.38", "vapor pressure (log10 mmHg)": "-9.837"}

A selection of 3 entries from above:

{"smiles": "CSCCC=O", "logP": "-0.16", "log solubility (log10 mol/L)": "0.194"}
{"smiles": "NS(=O)(=O)c1cc(C(=O)O)ccc1Cl", "logP": "0.881", "log solubility (log10 mol/L)": "-2.49", "vapor pressure (log10 mmHg)": "-4.502"}
{"smiles": "CC1(C)O[C@@H]2C[C@H]3[C@@H]4C[C@H](F)C5=CC(=O)C=C[C@]5(C)[C@H]4[C@@H](O)C[C@]3(C)[C@]2(C(=O)CO)O1", "logP": "1.1", "log solubility (log10 mol/L)": "-4.065"}